The values below come from ChEMBL document CHEMBL4229443, “Activation studies with amines and amino acids of the α-carbonic anhydrase from the pathogenic protozoan Trypanosoma cruzi” (Bioorg Med Chem, 2018).

One assay deals with Leishmania chagasi. The assay is described as follows: Activation of Leishmania donovani chagasi CA preincubated for 15 mins followed by CO2 addition by stopped-flow assay.
For assay [1], the target named is T1, Carbonic anhydrase-like protein, putative (Trypanosoma cruzi (strain CL Brener)) (UniProt Q4CVY4).
T1 sequence (whole entry): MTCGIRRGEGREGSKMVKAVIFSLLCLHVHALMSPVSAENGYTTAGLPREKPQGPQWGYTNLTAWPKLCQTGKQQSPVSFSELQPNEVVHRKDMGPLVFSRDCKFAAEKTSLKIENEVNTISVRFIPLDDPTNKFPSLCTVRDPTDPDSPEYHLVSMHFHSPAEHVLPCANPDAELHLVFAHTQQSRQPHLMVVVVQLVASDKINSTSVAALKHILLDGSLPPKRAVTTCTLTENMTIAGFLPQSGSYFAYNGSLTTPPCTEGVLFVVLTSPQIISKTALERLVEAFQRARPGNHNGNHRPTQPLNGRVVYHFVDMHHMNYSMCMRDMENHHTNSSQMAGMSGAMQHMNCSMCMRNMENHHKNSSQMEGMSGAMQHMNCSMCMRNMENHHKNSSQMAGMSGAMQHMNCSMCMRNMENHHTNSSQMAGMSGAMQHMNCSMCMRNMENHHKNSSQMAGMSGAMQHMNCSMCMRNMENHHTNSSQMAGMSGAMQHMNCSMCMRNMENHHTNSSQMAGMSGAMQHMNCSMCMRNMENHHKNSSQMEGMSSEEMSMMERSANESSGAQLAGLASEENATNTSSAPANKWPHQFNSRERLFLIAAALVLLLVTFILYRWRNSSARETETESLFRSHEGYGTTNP
The experiment in a line: Activation of Trypanosoma cruzi CA preincubated for 15 mins followed by CO2 addition by stopped-flow assay. Put shortly:
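Recombinant TcCA pre-incubated 15 min at room temperature with activator (10 mM water stocks diluted down to 1 nM in assay buffer). Stopped-flow CO2 hydration (CO2 1.7–17 mM) in 10 mM Hepes pH 7.5 with 0.1 M Na2SO4, 25 °C, 10 s. Phenol red 0.2 mM read at 557 nm. Initial 5–10% of ≥6 traces used, uncatalyzed rate subtracted. KA fitted by competitive steady-state equation; mean of three.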

On to `N[C@@H](Cc1ccccc1)C(=O)O`, for which the KA is 9.16 µM with Leishmania chagasi and 12.1 µM in assay [1].
On to `N[C@H](Cc1ccccc1)C(=O)O`, for which the KA in the assay with Leishmania chagasi was determined as 3.95 µM; in assay [1] it was 6.39 µM.
